One series deals with OATP1B1 (Homo sapiens, UniProt Q9Y6L6). As to the kind of experiment: Inhibition of OATP1B1 (unknown origin)-mediated sodium fluorescein expressed in CHO cells at 10 uM. The format is ADME, cell-based. To be noted: CHO cells expressing OATP1B1, probe sodium fluorescein.
Series [1] addresses Solute carrier organic anion transporter family member 1B1 (Homo sapiens, UniProt Q9Y6L6). As to the kind of experiment: Inhibition of human OATP1B1-mediated [3H]estrone 3-sulfate at 100 uM after 5 mins relative to control. Format: ADME.

Protein sequences, listed by entry. Tags and fused reporters are not part of them. Lines headed by an entry give the natural chain unless they say otherwise; changes in a name come on top.
UniProt Q9Y6L6: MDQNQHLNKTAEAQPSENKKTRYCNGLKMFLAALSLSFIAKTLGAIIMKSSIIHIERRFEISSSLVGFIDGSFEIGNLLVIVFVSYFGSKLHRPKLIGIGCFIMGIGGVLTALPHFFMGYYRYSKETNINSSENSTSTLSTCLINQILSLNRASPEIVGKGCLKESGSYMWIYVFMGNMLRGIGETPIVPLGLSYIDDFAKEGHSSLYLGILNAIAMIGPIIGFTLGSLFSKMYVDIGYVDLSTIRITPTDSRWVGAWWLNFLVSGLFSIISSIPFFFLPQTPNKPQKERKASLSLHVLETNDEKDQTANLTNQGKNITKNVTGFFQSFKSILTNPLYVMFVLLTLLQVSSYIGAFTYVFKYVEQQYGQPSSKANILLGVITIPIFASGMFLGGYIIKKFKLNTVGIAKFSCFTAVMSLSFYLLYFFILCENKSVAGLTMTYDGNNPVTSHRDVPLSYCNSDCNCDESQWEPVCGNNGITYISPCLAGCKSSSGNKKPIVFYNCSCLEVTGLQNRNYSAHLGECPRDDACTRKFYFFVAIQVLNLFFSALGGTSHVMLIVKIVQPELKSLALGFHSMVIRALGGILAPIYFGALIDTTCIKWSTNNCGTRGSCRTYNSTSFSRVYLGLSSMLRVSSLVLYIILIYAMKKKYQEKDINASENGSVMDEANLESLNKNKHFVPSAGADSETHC

The structures appear in SMILES notation.

Usually inhibition stands for the drop in the measured response relative to a control, in per cent.

For `CC(=O)O[C@H]1C(=O)[C@@]2(C)[C@H]([C@H](OC(=O)c3ccccc3)[C@]3(O)C[C@H](OC(=O)[C@H](O)[C@@H](NC(=O)c4ccccc4)c4ccccc4)C(C)=C1C3(C)C)[C@]1(OC(C)=O)CO[C@@H]1C[C@@H]2O` [PACLITAXEL], the inhibition at 10 µM on OATP1B1 came to 16.4%. Also, the “inhibition (INH)” value in series [1] is 87.6%.

The values above are taken from ChEMBL document CHEMBL3407465, “Interaction of human organic anion transporter polypeptides 1B1 and 1B3 with antineoplastic compounds” (Eur J Med Chem, 2015).
